## AlphaSeq binding of Ab-14 light chain variants to a spike HR2 peptide

The measurements come from Engelhart et al. 2022 (doi:10.1038/s41597-022-01779-4) through the FLAb antibody collection.

The target is the same throughout: PDVDLGDISGINAS, from the HR2 region of SARS-CoV-2 spike.

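The starting antibody came from a phage panning campaign against this peptide. AAYL50 was designed without a model: most single CDR substitutions and a random sample of double and triple ones. In AlphaSeq, yeast of one mating type display the scFv and yeast of the other type display the target. Mating (16 h, 30 °C) was followed by selection of diploids and sequencing of their barcodes. Read counts were normalised to the haploid input and turned into Kd by a linear fit to BCL2-family pairs of known affinity, for each replicate. The assay was run in three technical replicates.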

Parent scFv Ab-14: VH joined to VL by the linker GGGGSGGGGSGGGGS. Changes lie in the light chain CDRs alone.
VH: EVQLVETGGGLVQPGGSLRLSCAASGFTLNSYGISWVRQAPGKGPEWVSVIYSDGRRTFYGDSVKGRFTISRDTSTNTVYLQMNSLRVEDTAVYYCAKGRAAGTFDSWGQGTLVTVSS
VL: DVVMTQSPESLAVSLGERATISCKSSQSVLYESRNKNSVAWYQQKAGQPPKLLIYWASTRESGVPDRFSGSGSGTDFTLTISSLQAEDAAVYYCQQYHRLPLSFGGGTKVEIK

Variants are written as CDR1, CDR2 and CDR3 of the light chain (limits as in the source). Parent: KSSQSVLYESRNKNSVA, WASTRES, QQYHRLPLS.
Scale: log10 of Kd in nM, estimated from mating counts; low values are strong binders.
The mean shown is taken over the replicates in which the pair was detected.
"nd" marks a missing value. The strain was present, yet no cells mated with the target were sequenced in that replicate, which points to weak or no binding.
Nonspecific signal, from three strains lacking the peptide, appeared in 18% of pairings of library AAYL50, centred on 4.19 (5% of these signals below 2.99); values are not corrected for it. The control count says in how many pairings with the empty strains this scFv gave a signal, with their mean in brackets.

| # | CDR-L1 | CDR-L2 | CDR-L3 | log10 Kd, replicates | mean log10 Kd (nM) | empty controls |
|---|---|---|---|---|---|---|
| 1 | ESSQWVLYESRNKNSVA | WRSTRES | QQYHRLPLS | nd nd nd | nd | 0/9 |
| 2 | KSSQSVCYESRNKNSVL | WASTRPS | QQYHRLPLS | nd nd nd | nd | 0/9 |
| 3 | KSSQSVLVESRNKNLVA | WASTRES | RQYHRLPLS | nd nd nd | nd | 2/9 (4.46) |
| 4 | KSSQTVPYESRNKNSVA | WASTRES | QQGHRLPLS | 2.55 3.49 2.55 | 2.86 | 0/9 |
| 5 | KSSQSVLYESENKNSVA | WASTRAK | QQYHRLPLS | 0.69 0.96 0.84 | 0.83 | 4/9 (4.33) |
| 6 | KSSQSVLYESRNKMSVA | WASTRWS | QQYHRLYLS | 4.05 4.54 nd | 4.29 | 3/9 (4.20) |
| 7 | KSSQSVLYESRNKNSVA | WASTRES | QMYHRLPLS | 1.81 1.22 1.13 | 1.38 | 0/9 |
| 8 | KSSDSVLYESRNKNSVA | WAPTRES | QQYHRLPLC | nd nd nd | nd | 1/9 (5.07) |
| 9 | KSSQSHLDESRNKNSVA | VASTRES | QQYHRLPLS | nd nd nd | nd | 0/9 |
| 10 | RSSQSVLYESRNKNCVA | WASTRES | QQYHRCPLS | nd nd 3.56 | 3.56 | 0/9 |
| 11 | KSSQSVLHESRNKNSEA | WASTRES | QQYFRLPLS | nd 3.79 nd | 3.79 | 3/9 (3.96) |
| 12 | WSSLSVLYESRNKKSVA | WASTRES | QQYHRLPLS | nd nd nd | nd | 0/9 |
| 13 | KWSQSVLYESRNKNSVA | WASTREC | QQYKRLPLS | 2.05 1.87 2.21 | 2.04 | 2/9 (3.52) |
| 14 | KSPQSVLYESRNKNSVW | WAPTRES | QQYHRLPLS | nd nd nd | nd | 1/9 (1.50) |
| 15 | KSSQSVLYESRNKNSVA | WASPIES | QQYVRLPLS | nd 3.62 5.82 | 4.72 | 6/9 (4.49) |
| 16 | KSSQSVLYESRNKNSVA | WAFTRDK | QQYHRLPLS | 2.52 1.47 1.58 | 1.85 | 0/9 |
| 17 | KSSQSVLYEKRNKNSGA | WGSTRES | QQYHRLPLS | nd nd nd | nd | 2/9 (3.92) |
| 18 | KSSQQVLYESRNKNSGA | WASTRES | YQYHRLPLS | nd nd nd | nd | 0/9 |
| 19 | KSSQSVLYEGRNANSVR | WASTRES | QQYHRLPLS | nd 5.45 nd | 5.45 | 1/9 (4.27) |
| 20 | KSSQSVLPESRNKNSVA | WASIRES | QQYHRLPLR | nd nd nd | nd | 0/9 |
| 21 | NSSQSVLMESRNKNSVA | WASTRES | QQYHRLMLS | 1.60 1.87 1.86 | 1.78 | 1/9 (3.96) |
| 22 | KSSQSVLYESRNCNSVA | WASTRES | QQYHRLMTS | nd nd nd | nd | 3/9 (2.81) |
| 23 | KSSQMVLYESRNKNSVA | WMSTRVS | QQYHRLPLS | 3.43 2.43 4.39 | 3.42 | 3/9 (4.52) |
| 24 | KSSQSVLYESINKESVA | WAVTRES | QQYHRLPLS | 3.06 nd 5.24 | 4.15 | 1/9 (3.80) |
| 25 | KSSQSVLYESRNKNSVC | WASSRES | QQYWRLPLS | nd nd nd | nd | 0/9 |
| 26 | KSSQSVLYESRNWNSVA | WASTRES | RQYFRLPLS | 0.56 0.95 0.84 | 0.78 | 2/9 (3.43) |
| 27 | KSSSSVLYESRNKNSVA | WASTRES | QQYHRLPAS | 0.99 1.27 1.18 | 1.15 | 3/9 (4.16) |
| 28 | KSSQSVLYERRNKLSVA | WASTRES | QQYHRLPLS | nd nd nd | nd | 0/9 |
| 29 | KSSQSVLYESRNKNSVA | WALTREI | QQYIRLPLS | nd 3.18 nd | 3.18 | 0/9 |
| 30 | KSSQSVRYEKRNGNSVA | WASTRES | QQYHRLPLS | 1.47 1.76 1.55 | 1.59 | 0/9 |
| 31 | KSSQSQLYESRNKNSVA | WASTRVR | QQYHRLPLS | 2.42 2.21 2.42 | 2.35 | 8/9 (5.33) |
| 32 | KSSQSVGYESRNKNSVV | WAITRES | QQYHRLPLS | nd nd nd | nd | 0/9 |
| 33 | KSSQSVLYESRNKNSVP | WASTRCS | WQYHRLPLS | 4.51 3.84 4.88 | 4.41 | 5/9 (4.42) |
| 34 | KSSQSVLYESRNKNSVA | WACTRES | QNYHRLPLK | 1.97 2.42 2.97 | 2.46 | 1/9 (4.89) |
| 35 | KSSQSVLYESRNKNDVA | WASTRVS | FQYHRLPLS | 4.59 4.01 nd | 4.30 | 1/9 (3.36) |
| 36 | KSSQSVLYESRNKNSVA | WAETRES | QQYHYLPLH | 1.55 1.51 2.16 | 1.74 | 2/9 (3.17) |
| 37 | KSSQSVLYESRAKNSVY | WASTRPS | QQYHRLPLS | nd nd nd | nd | 4/9 (3.89) |
| 38 | KSSQEVLYESRNKNLVA | WASTRES | QGYHRLPLS | 3.32 nd nd | 3.32 | 2/9 (3.70) |
| 39 | KSSQSVLYESRNKMSIA | WASTRES | QQYHRLPES | nd 3.55 nd | 3.55 | 0/9 |
| 40 | KSSQSVIYESRNKNSIA | WASTRES | QQYERLPLS | 2.13 1.64 2.72 | 2.17 | 0/9 |
| 41 | KSSQSVLYESRNKNSVA | CASTKES | QQYHRLPLR | 4.74 nd nd | 4.74 | 3/9 (3.63) |
| 42 | KSSQSVLYESRQKNSVA | WLSTRES | QQYHRLELS | nd nd nd | nd | 0/9 |
| 43 | KSSQSVLYESRNVNSVA | WASTRES | QWKHRLPLS | 2.41 2.44 2.90 | 2.58 | 1/9 (5.02) |
| 44 | KSSQSVLYESRFKNSVA | WASTREC | QQYHRLPES | 2.83 2.28 3.20 | 2.77 | 0/9 |
| 45 | KRSQSVLYESRNKNSVA | WNSTRES | QQYHRVPLS | nd 5.04 nd | 5.04 | 7/9 (4.11) |
| 46 | KSSPSVLYESINKNSMA | WASTRES | QQYHRLPLS | 1.68 1.53 1.62 | 1.61 | 2/9 (4.95) |
| 47 | KSSSSTLYESRNKNSVA | WASIRES | QQYHRLPLS | 0.55 0.93 0.80 | 0.76 | 0/9 |
| 48 | KSSQSVLYMSRNNNSVA | WASTRES | QQYHRLTLS | nd nd nd | nd | 2/9 (3.85) |
| 49 | KSSQSFLYELRNKNSVA | WVSTRES | QQYHRLPLS | 3.32 2.87 3.12 | 3.10 | 3/9 (3.94) |

Excerpt, the final 3 entries:

| CDR-L1 | CDR-L2 | CDR-L3 | log10 Kd, replicates | mean log10 Kd (nM) | empty controls |
|---|---|---|---|---|---|
| KSSSSTLYESRNKNSVA | WASIRES | QQYHRLPLS | 0.55 0.93 0.80 | 0.76 | 0/9 |
| KSSQSVLYMSRNNNSVA | WASTRES | QQYHRLTLS | nd nd nd | nd | 2/9 (3.85) |
| KSSQSFLYELRNKNSVA | WVSTRES | QQYHRLPLS | 3.32 2.87 3.12 | 3.10 | 3/9 (3.94) |